Results on one substance are retold here after publication PMC3050021 (Cancer cell, 2010).

The test has as its target T1, full-length HDMX (Homo sapiens, UniProt O15151).
T1 sequence (O15151 1-490): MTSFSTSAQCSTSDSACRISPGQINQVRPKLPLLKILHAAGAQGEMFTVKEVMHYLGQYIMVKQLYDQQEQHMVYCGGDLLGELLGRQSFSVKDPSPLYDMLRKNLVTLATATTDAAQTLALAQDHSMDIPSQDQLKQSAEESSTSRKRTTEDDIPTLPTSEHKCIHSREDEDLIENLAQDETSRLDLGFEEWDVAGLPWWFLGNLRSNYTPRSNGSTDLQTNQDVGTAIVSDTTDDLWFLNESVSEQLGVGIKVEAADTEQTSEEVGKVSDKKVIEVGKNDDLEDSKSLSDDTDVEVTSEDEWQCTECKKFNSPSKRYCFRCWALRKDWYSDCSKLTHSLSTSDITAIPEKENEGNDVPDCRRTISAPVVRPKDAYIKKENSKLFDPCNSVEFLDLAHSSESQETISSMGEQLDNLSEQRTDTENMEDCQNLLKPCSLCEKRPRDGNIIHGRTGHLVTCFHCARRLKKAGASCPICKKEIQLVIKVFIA
The experiment in a line: FP direct binding of FITC-peptides to HDMX. As to conditions: fluorescence polarization; FITC-peptide 25 nM, full-length HDMX 25 pM – 100 nM.

Take “FITC-wild-type p53_14–29: FITC-labeled derivative of wild-type p53_14–29”: the HDMX interaction result is on record as “no interaction in this dose range”.
